The values below are quoted from earlier work in patent US20110262395A1, “SENSORY RECEPTORS FOR CHRONIC FATIGUE AND PAIN AND USES THEREOF” (UNIVERSITY OF UTAH RESEARCH FOUNDATION, priority 2008, published 2011).

Chains of the proteins cited; added tags and fusions are not shown. Lines headed by an entry give the natural chain unless they say otherwise; changes in a name come on top.
UniProt Q93086: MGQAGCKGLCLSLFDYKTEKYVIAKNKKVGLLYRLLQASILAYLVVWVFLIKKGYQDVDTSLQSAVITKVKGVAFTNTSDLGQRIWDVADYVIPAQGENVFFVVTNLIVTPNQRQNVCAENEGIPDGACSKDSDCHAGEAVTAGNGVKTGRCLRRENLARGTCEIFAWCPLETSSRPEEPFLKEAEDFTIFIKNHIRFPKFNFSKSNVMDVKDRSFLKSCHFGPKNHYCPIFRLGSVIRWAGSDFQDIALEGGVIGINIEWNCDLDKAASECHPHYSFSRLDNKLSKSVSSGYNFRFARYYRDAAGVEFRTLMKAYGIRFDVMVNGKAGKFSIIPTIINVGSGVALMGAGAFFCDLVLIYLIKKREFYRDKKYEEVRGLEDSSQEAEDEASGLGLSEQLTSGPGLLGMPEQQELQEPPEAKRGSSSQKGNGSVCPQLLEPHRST

pIC50: −log10 of the molar value.

One series concerns the target P2X5 receptors (Homo sapiens, UniProt Q93086). The conditions noted are these: cited from earlier work.
The target in another series is T1, mouse P2X4 receptors (Mus musculus, UniProt Q9JJX6).
T1 sequence (Q9JJX6 1-388): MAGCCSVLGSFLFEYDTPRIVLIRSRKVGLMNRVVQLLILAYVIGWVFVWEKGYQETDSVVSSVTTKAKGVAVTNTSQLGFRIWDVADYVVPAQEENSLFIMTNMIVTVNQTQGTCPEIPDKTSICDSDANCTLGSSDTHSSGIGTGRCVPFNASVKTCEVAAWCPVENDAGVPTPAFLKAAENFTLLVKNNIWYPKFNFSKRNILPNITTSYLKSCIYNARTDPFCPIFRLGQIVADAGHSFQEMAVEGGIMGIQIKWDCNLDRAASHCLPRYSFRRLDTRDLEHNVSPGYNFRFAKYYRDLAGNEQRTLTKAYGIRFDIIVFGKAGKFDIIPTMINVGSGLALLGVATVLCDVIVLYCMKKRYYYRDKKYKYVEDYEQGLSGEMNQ
To be noted: cited from earlier work.

For `Cc1nc(N=Nc2ccc(S(=O)(=O)O)cc2S(=O)(=O)O)c(COP(=O)(O)O)c(C=O)c1O` [PPADS], the results for the pIC50 on P2X5 receptors and on mouse P2X4 receptors were 6.70 and 4.60, respectively.
